Entries after “also recorded” stand apart in the source; their conditions may differ.
Biological target: ECE-1 (Homo sapiens, UniProt P42892)
Conditions: 10 nmol peptide in 750 µl 0.2 M acetate buffer pH 5.5 (GLP-1 also at neutral pH), 0.25 µg recombinant ECE-1, 37 °C, up to 24 h, RP-HPLC C18, UV 214 nm, peak area with versus without enzyme, n = 2-3

Sequences of proteins named here, by UniProt entry; tags and fusion partners are left off.
UniProt P42892, whole entry, species assumed: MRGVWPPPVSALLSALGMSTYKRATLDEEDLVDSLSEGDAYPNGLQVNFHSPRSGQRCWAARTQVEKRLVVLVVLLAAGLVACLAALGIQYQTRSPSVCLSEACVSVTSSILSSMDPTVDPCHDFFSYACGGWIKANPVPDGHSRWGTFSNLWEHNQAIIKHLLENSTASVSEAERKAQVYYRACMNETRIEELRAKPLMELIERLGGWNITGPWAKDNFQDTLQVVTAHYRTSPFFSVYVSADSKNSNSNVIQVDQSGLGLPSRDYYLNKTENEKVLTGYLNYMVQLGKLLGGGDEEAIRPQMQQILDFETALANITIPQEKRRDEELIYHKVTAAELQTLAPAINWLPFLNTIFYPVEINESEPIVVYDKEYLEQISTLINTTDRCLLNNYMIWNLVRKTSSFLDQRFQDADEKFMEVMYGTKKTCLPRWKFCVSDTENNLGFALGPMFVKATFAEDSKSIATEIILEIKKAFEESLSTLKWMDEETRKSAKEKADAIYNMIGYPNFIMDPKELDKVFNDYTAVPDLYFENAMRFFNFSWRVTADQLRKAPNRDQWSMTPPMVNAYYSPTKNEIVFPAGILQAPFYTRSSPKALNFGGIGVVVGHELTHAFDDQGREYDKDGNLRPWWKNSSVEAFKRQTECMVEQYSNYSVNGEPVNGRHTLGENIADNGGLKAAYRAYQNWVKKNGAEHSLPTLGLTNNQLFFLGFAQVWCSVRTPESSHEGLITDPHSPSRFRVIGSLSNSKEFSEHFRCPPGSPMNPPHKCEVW

`CC[C@H](C)[C@H](NC(=O)[C@H](Cc1ccccc1)NC(=O)[C@H](CCC(=O)O)NC(=O)[C@H](CCCCN)NC(=O)[C@H](C)NC(=O)[C@H](C)NC(=O)[C@H](CCC(N)=O)NC(=O)CNC(=O)[C@H](CCC(=O)O)NC(=O)[C@H](CC(C)C)NC(=O)[C@H](Cc1ccc(O)cc1)NC(=O)[C@H](CO)NC(=O)[C@H](CO)NC(=O)[C@@H](NC(=O)[C@H](CC(=O)O)NC(=O)[C@H](CO)NC(=O)[C@@H](NC(=O)[C@H](Cc1ccccc1)NC(=O)[C@@H](NC(=O)CNC(=O)[C@H](CCC(=O)O)NC(=O)[C@H](C)NC(=O)[C@@H](N)Cc1c[nH]cn1)[C@@H](C)O)[C@@H](C)O)C(C)C)C(=O)N[C@@H](C)C(=O)N[C@@H](Cc1c[nH]c2ccccc12)C(=O)N[C@@H](CC(C)C)C(=O)N[C@H](C(=O)N[C@@H](CCCCN)C(=O)NCC(=O)N[C@@H](CCCNC(=N)N)C(=O)N1CCC[C@H]1C(=O)N[C@@H](CO)C(=O)N[C@@H](CO)C(=O)NCC(=O)N[C@@H](C)C(=O)N1CCC[C@H]1C(=O)N1CCC[C@H]1C(=O)N1CCC[C@H]1C(=O)N[C@@H](CO)C(N)=O)C(C)C` [Chi1] was tested, and the “In vitro peptide degradation by / resistance to ECE-1 (in words)” value was “partial increase in ECE-1 resistance; also recorded: ECE-1-sensitive”.

— paper PMC7664906 (International Journal of Molecular Sciences, 2020)
